Results published in patent publication US12269859B2, “Synthetic immune receptors and methods of use thereof” (Angeles Therapeutics, Inc., priority 2016, dated 2025).
Positions count from the first letter of the chain named.

B1: 10492 (protein)
chain: MALPVTALLLPLALLLHAARPDVVMTQSPSSLSASVGDRVTITCRASQDISKYLNWYQQKPGKAPKLLIYHTSRLHSGVPSRFSGSGSGTDFTLTISSLQPEDFATYYCQQGNTLPYTFGGGTKVEIKLEDLKNVFPPEVAVFCPSEAEISHTQKATLVCLATGFYPDHVELSWWVNGKEVHSGVSTDPQPLKEQPALNDSRYCLSSRLRVSATFWQNPRNHFRCQVQFYGLSENDEWTQDRAKPVTQIVSAEAWGRADCGFTSESYQQGVLSATILYEILLGKATLYAVLVSALVLMAMVKRKDSRGRAKRSGSGATNFSLLKQAGDVEENPGPTSMDWIWRILFLVGAATGAHSFEQVQLQESGPGLVKPSQTLSLTCTVSGVSLPDYGVSWIRQPPGKGLEWIGVIWGSETTYYNSALKSRVLISVDTSKNQVSLKLSSVTAADTAVYYCARHYYYGGSYAMDYWGQGTTVTVSSTRIQNPDPAVYQLRDCKSSDKSVCLFTDFDSQTNVSQSKDSDVYITDKTVLDMRSMDFKSNSAVAWSNKSDFACANAFNNSIIPEDTFFPSPESSCDVKLVEKSFETDTNLNFQNLSVIGFRILLLKVAGFNLLMTLRLWSS
B2: 10494 (protein)
chain: B1 chain with C144E, S206C, C494S, T524C
B3: 10493 (protein)
chain: B1 chain with C144E, D188C, C494S, T524C

Test system: IL2
Test: IL2 ELISA
Type: cell-based, human
Conditions: IL2 production upon 18 hour co-culture with RAJI cells; Jurkat-NFAT-GFP cells

| Molecule | IL2 |
| --- | --- |
| B1 | 0 pg/mL |
| B2 | 0 pg/mL |
| B3 | 0 pg/mL |
